Molecular target: BgtA (Helicobacter mustelae, UniProt D3UIY4)
Experiment: Chemoenzymatic labeling of cell lysates, streptavidin capture and Western blotting
Type: biochemical
Conditions: rat brain (olfactory bulb) lysates, BgtA + UDP-GalNAz, alkyne-biotin 11, streptavidin capture, immunoblot; in the presence but not absence of BgtA
Protocol: Chemoenzymatic Labeling of Cell Lysates.
The olfactory bulbs of postnatal day 3 rat pups were dissected on ice and lysed in boiling 1% SDS (5 volumes/weight) with sonication until the mixture was homogeneous. Protein was precipitated using methanol/chloroform/water. Briefly, protein was diluted to 200 μL and precipitated by sequential mixing with 600 μL of MeOH, 200 μL of CHCl3 and 450 μL H2O, after which the mixture was centrifuged at 23,000×g for 15 min. Precipitated protein was washed with 450 μL of MeOH and centrifuged at 23,000×g for 10 min. After the protein pellet was allowed to dry briefly, the pellet was re-dissolved at 5 mg/mL in 20 mM HEPES pH 7.9 containing 1% SDS, and diluted 5-fold into a buffer with the following final concentrations: 20 mM HEPES pH 7.9, 50 mM NaCl, 2% NP-40, 5 mM MnCl2. UDP-GalNAz 2 (25 μM; Invitrogen) and BgtA (0.16 mg/mL) were added, and the samples were incubated at 4° C. for 16-20 h. The labeled proteins were precipitated as above and resuspended in 50 mM Tris pH 7.4 containing 1% SDS at 4 mg/mL.
The resuspended proteins were subsequently reacted with alkyne-TAMRA 10 (Invitrogen) or alkyne-biotin 11 (Invitrogen) as per the Click-It™ TAMRA and Biotin Glycoprotein Detection Kit (Invitrogen) instructions, except that EDTA-free Complete™ protease inhibitors were added during the reaction. […]

## munc18-1: known Fucα(1-2)Gal glycoprotein in rat brain lysate
  chemoenzymatic labeling and detection of glycoprotein: chemoenzymatically labeled and detected
